{"source": "patent US20040132715A1", "about": "“Method to treat allergic rhinitis” (priority 2002, published 2004)", "test_system": "Zymosan Induced Peritonitis in Mice", "assay": "Zymosan induced peritonitis in mice (PMN influx into peritoneal cavity)", "format": "in vivo", "details": "s.c. at -15 min and +2 h (Compound 1 10 mg/kg; Imetit, Thioperamide 5 mg/kg), 1 mg zymosan A i.p., lavage at 4 h", "protocol": "This is commonly used to induce peritonitis in mice and appears to act in a mast cell dependent manner. Male out-bred Swiss albino mice were purchased from Bantin and Kingman (T.O. strain; Hull, Humberside) and maintained on a standard chow pellet diet with tap water ad libitum and a 12:00 h light /dark cycle. All animals were housed for at least 3 days prior to experimentation to allow body weight to reach ˜30 g on the day of the experiment. […] Animals were briefly (30-60 s) anesthetized with halothane for all s.c. and i.p. treatments described below. Drugs were stored at room temperature, in the dark. On the day of the experiment, drugs were dissolved in sterile PBS as depicted below, and generously vortexed. The compound from Chemical Example 1 was prepared at 10 mg/5 mL, and injected at 5 mL/kg. […] Time −15 min: Compounds or PBS administered s.c. at the reported doses. Time 0: At time 0, mice received 1 mg zymosan A (Sigma) i.p. Time +2 h: Compounds or PBS administered s.c. at the reported doses. […] Peritoneal cavities were washed 4 h later with 3 mL of PBS containing 3 mM EDTA, and the number of migrated leukocytes determined, by taking an aliquot (100 μL) of the lavage fluid and diluting 1:10 in Turk's solution (0.01% crystal violet in 3% acetic acid). […] Statistical differences were determined by Anova followed by Bonferroni's post-hoc test.", "note": "Values joined by “and” are separate entries in the source; they are usually repeats but may differ in a detail not shown here. Equal values may be shown once."}
{"compound": "N=C(N)SCCc1cnc[nH]1", "note": "[Imetit]", "values": [{"measurement": "PMN (10^6 per mouse), single mice", "result": "19.8 10^6 per mouse and 17.1 10^6 per mouse and 14.1 10^6 per mouse (2×) and 15.3 10^6 per mouse and 21.3 10^6 per mouse and 17.7 10^6 per mouse and 18.6 10^6 per mouse"}]}
